Measured values: patent publication EP4745137A1 (Gluetacs Therapeutics (Shanghai) Co., Ltd., priority 2023, dated 2025)
Like-named read-outs stand apart in the source and are kept apart here.

Tests used:
SR = assay: Tumor cell proliferation inhibition (CellTiter-Meiluncell Luminescent Cell Viability Assay), SR; settings: Homo sapiens, read-out: inhibitory activity (IC50, nM) against tumor cells proliferation, SR
Vcap = assay: Tumor cell proliferation inhibition (CellTiter-Meiluncell Luminescent Cell Viability Assay), Vcap; settings: Homo sapiens, 96 h, read-out: inhibitory activity (IC50, nM) against tumor cells proliferation, Vcap
TMD8 = assay: Tumor cell proliferation inhibition (CellTiter-Meiluncell Luminescent Cell Viability Assay), TMD8; settings: Homo sapiens
MM.1S = assay: Tumor cell proliferation inhibition (CellTiter-Meiluncell Luminescent Cell Viability Assay), MM.1S; settings: Homo sapiens, MM1.S, read-out: inhibitory activity (IC50, nM) against tumor cells proliferation, MM.1S
MM.1R = assay: Tumor cell proliferation inhibition (CellTiter-Meiluncell Luminescent Cell Viability Assay), MM.1R; settings: Homo sapiens, 96 h, read-out: inhibitory activity (IC50, nM) against tumor cells proliferation, MM.1R
SW620 = assay: Tumor cell proliferation inhibition (CellTiter-Meiluncell Luminescent Cell Viability Assay), SW620; settings: Homo sapiens, SW-620, 96 h, read-out: inhibitory activity (IC50, nM) against tumor cells proliferation, SW620
Jurkat = assay: Tumor cell proliferation inhibition (CellTiter-Meiluncell Luminescent Cell Viability Assay), Jurkat; settings: Homo sapiens, read-out: inhibitory activity (IC50, nM) against tumor cells proliferation, Jurkat
CAL-62 = assay: Tumor cell proliferation inhibition (CellTiter-Meiluncell Luminescent Cell Viability Assay), CAL-62; settings: Homo sapiens, CAL-62, 96 h, read-out: inhibitory activity (IC50, nM) against tumor cells proliferation, CAL-62
[1] = tested on: Human acute T lymphocytic leukemia cells (Molt-4); assay: Tumor cell proliferation inhibition (CellTiter-Meiluncell Luminescent Cell Viability Assay), Molt-4
MGC803 = assay: Tumor cell proliferation inhibition (CellTiter-Meiluncell Luminescent Cell Viability Assay), MGC803; settings: Homo sapiens, MGC-803, 96 h, read-out: inhibitory activity (IC50, nM) against tumor cells proliferation, MGC803
MV-4-11 = assay: Tumor cell proliferation inhibition (CellTiter-Meiluncell Luminescent Cell Viability Assay), MV-4-11; settings: Homo sapiens, MV4-11, read-out: inhibitory activity (IC50, nM) against tumor cells proliferation, MV-4-11
CCRF-CEM = assay: Tumor cell proliferation inhibition (CellTiter-Meiluncell Luminescent Cell Viability Assay), CCRF-CEM; settings: Homo sapiens, read-out: inhibitory activity (IC50, nM) against tumor cells proliferation, CCRF-CEM
NCI-H1975 = assay: Tumor cell proliferation inhibition (CellTiter-Meiluncell Luminescent Cell Viability Assay), NCI-H1975; settings: Homo sapiens
[2] = tested on: Human breast cancer cells (MDA-MB-231); assay: Tumor cell proliferation inhibition (CellTiter-Meiluncell Luminescent Cell Viability Assay), MDA-MB-231; settings: MDA-MB-231, 96 h, read-out: inhibitory activity (IC50, nM) against tumor cells proliferation, MDA-MB-231

`Nc1cccc2c1CN(C1CCC(=O)NC1=O)C2=O` (centres unmarked) [lenalidomide, reference compound] showed an IC50 (SR; 96 h) greater than 10000 nM, an IC50 (SR) greater than 10000 nM and an IC50 (Vcap) greater than 10000 nM. For the same compound, the IC50 (TMD8; TMD8, 96 h, read-out: inhibitory activity (IC50, nM) against tumor cells proliferation, TMD8) was greater than 10000 nM, the IC50 (TMD8; TMD8, read-out: inhibitory activity (IC50, nM) against tumor cells proliferation, TMD8) was greater than 10000 nM and the IC50 (MM.1S) was 1000 to 5000 nM. It also gave an IC50 (MM.1R) greater than 10000 nM, an IC50 (SW620) greater than 10000 nM and an IC50 (Jurkat; 96 h) greater than 10000 nM. For the same compound, the IC50 (Jurkat) was greater than 10000 nM, the IC50 (CAL-62) was greater than 10000 nM and the IC50 ([1]; MOLT-4, 96 h, read-out: inhibitory activity (IC50, nM) against tumor cells proliferation, Molt 4) was greater than 10000 nM. It also gave an IC50 ([1]; MOLT-4, read-out: inhibitory activity (IC50, nM) against tumor cells proliferation, Molt-4) greater than 10000 nM, an IC50 (MGC803) greater than 10000 nM and an IC50 (MV-4-11) greater than 10000 nM. The IC50 (CCRF-CEM; 96 h) was greater than 10000 nM, the IC50 (CCRF-CEM) was greater than 10000 nM and the IC50 (NCI-H1975; NCI-H1975, 96 h, read-out: inhibitory activity (IC50, nM) against tumor cells proliferation, H1975) was greater than 10000 nM. The IC50 (NCI-H1975; NCI-H1975, read-out: inhibitory activity (IC50, nM) against tumor cells proliferation, H1975) was greater than 10000 nM and the IC50 [2] was greater than 10000 nM.
